SMILES strings stand for the structures.

Protein sequences, listed by entry. Tags and fused reporters are not part of them. Lines headed by an entry give the natural chain unless they say otherwise; changes in a name come on top.
UniProt O76083: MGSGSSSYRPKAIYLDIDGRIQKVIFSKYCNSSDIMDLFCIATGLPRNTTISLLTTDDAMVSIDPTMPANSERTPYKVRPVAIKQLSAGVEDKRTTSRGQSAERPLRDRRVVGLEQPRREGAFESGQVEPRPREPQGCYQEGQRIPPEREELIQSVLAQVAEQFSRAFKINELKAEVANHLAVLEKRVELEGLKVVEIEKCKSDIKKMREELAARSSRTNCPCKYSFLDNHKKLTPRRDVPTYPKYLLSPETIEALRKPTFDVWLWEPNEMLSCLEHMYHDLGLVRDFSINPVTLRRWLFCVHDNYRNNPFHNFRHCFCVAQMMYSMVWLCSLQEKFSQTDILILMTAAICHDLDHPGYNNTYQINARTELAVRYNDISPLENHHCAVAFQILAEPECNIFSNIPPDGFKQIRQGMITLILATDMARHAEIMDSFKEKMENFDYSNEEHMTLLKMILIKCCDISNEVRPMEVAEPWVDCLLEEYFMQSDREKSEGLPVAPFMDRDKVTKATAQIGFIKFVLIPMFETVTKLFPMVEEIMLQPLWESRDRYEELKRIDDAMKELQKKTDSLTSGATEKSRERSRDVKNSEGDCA
UniProt Q14123, whole entry: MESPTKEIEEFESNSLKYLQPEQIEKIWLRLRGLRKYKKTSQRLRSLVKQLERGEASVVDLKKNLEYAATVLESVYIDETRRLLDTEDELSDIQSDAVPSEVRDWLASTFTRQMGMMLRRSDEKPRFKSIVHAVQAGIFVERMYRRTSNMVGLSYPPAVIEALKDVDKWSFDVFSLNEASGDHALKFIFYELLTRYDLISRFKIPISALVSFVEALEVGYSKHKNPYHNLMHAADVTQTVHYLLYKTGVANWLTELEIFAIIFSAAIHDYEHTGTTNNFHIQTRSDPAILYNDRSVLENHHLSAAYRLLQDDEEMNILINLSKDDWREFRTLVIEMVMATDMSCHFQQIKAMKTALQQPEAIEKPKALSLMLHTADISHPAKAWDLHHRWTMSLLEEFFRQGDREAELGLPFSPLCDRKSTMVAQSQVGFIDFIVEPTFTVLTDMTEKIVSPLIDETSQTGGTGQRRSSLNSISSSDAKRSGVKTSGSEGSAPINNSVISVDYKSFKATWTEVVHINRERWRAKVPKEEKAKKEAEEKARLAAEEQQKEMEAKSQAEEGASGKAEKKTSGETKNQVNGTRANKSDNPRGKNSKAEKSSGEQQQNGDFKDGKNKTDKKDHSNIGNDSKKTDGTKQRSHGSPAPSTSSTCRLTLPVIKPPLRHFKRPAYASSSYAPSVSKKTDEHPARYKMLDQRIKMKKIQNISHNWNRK

The target in assay [1] is High affinity cGMP-specific 3',5'-cyclic phosphodiesterase 9A (Homo sapiens, UniProt O76083). Kind of assay: Inhibition of PDE9A (181 to 506 residues) (unknown origin) using [3H]-cGMP substrate incubated for 15 mins by liquid scintillation counting method.
Assay [2] addresses Dual specificity calcium/calmodulin-dependent 3',5'-cyclic nucleotide phosphodiesterase 1C (Homo sapiens, UniProt Q14123). Kind of assay: Inhibition of PDE1C2 (147 to 531 residues) (unknown origin) using [3H]-cGMP substrate incubated for 15 mins by liquid scintillation counting method.

For the compound `C[C@@H](Nc1nc2c(cnn2C2CCCC2)c(=O)[nH]1)c1ccc(Cl)cc1`, 0.058 µM corresponded to half-maximal inhibition in assay [1] (IC50).

For the compound `C[C@@H](Nc1nc2c(cnn2C(C)(C)C)c(=O)n1Cc1ccc(F)cc1)c1ccc(Cl)cc1`, the half-maximal inhibitory concentration (IC50) (commonly the concentration at which inhibition is half-maximal) in assay [2] was 0.0029 µM.
